Pin1 inh – human Pin1 inhibition. Pin1 FP peptide displacement, HiFluor488, 10 min. Potency, µM (highest dose often 115 µM), for the others: at the top dose activity, negative = inhibition, most hits filed as inhibitors. 390,000 compounds, 0.009% hits; active means well fitted inhibition curve with a large enough effect in the polarisation, with a control signal flat, not every such curve was filed as active; inconclusive means small, poorly fitted or top-dose-only effect, or effect the other way, or a change in a side signal; inactive means no such curve, though single readings can be large or run the other way; the % refers to the polarisation; further: potency means the concentration at half of the fitted maximal effect; on the % scale 0 is the no-effect control and ±100 the full control effect
PTHR1 ag – agonists of human PTHR1 parathyroid hormone receptor. Q03431. HEK293 GP2 PTHR1 cells, GloSensor cAMP luminescence, 1 h. Potency, µM (highest dose often 115 µM), for inactives: at the highest dose activation, most hits filed as activators. 410,000 compounds, 0.075% hits; further: potency means the concentration at half of the fitted maximal effect; nearly all actives have a fitted effect of over 55% in size
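HEK-293-derived GP2 cells expressing PTHR1 and a GloSensor cAMP reporter, 3,000/well, plated overnight, given luciferin plus IBMX (each 0.5 mM as added) for 1 h at 37 °C, then compound for 1 h at 37 °C. Luminescence was read after 15 min at room temperature.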
GLP-1R agonist – agonists of human GLP-1 receptor | 380,000 compounds, 0.007% hits | Potency, µM (series often up to 45.6 µM), for inactives: top-dose activation, actives largely listed as activators | AID 624172 | HEK293 GLP-1R CRE-luciferase, luminescence, 4-6 h; cells express a hypersensitive GLP-1R form | P43220; further: potency means the concentration at half of the fitted maximal effect; % of control where 0% means no effect
GLP-1R inv ag – acts as inverse agonist at human GLP-1 receptor; Potency, µM (highest dose often 38.3 µM), for inactives: at the top dose activity change, negative = inhibition, actives largely listed as inhibitors; P43220; 410,000 compounds, 1.6% hits; HEK293 GLP-1R CRE-luciferase, luminescence, 24 h; GLP-1R form is constitutively active; further: potency means the concentration at half of the fitted maximal effect; on the % scale 0 is the no-effect control and ±100 the full control effect; nearly all actives have a fitted effect of over 55% in size
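Constitutively active GLP-1R drives a cAMP-responsive luciferase in stably transfected HEK293 cells; test compounds are added after overnight (12 h) attachment and left 24 hr, and signal loss in luminescence marks inhibition.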
HEK293 tox – cytotoxicity in counter-screen for GLP-1R inverse agonists; HEK293 cAMP-luciferase reporter cells, luminescence, 24 h; Potency, µM (doses to about 38.3 µM), for inactives: at the top dose activity change, negative = inhibition, hits mostly inhibitors; 410,000 compounds, 0.13% hits;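 further: loss of luciferase light is scored as toxicity; potency means the concentration at half of the fitted maximal effect; on the % scale 0 is the no-effect control and ±100 the full control effect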
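Luminescence readout: signal drop marks cytotoxicity. Plated cells grew 12 h at 37 °C, 5% CO2, received 23 nL compound for 24 h, then got luciferase reagent, read after 12 min at RT.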
miR-21 reporter – raises the signal of a miR-21 reporter | HeLa miR-21 FLuc reporter, luciferase, 48 h | Potency, µM (highest dose often 38.3 µM), for inactives: at the highest dose reporter change, positive = more light | 340,000 tested, under 10 active | AID 2288; active = well fitted rising curve with a large enough effect; inconclusive = small, poorly fitted or top-dose-only effect; inactive = no such curve, though single readings can be large or run the other way;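 also: % of control where 0% means no effect; miR-21 action dims this reporter so a rising signal means less miR-21 action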
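HeLa cells endogenously expressing miR-21, stably carrying CMV-driven firefly luciferase with a downstream miR-21 binding site, 2000 cells/well. Titrations up to approximately 40 uM, 48 hours; luciferase luminescence read.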
* marks the source's active call; other numbers are inactive results; i = inactive; ? = inconclusive; . = no result; [ ] = another dose, or the depositor's remark. Hits are enriched below; roughly 1.7% of the tested compounds scored in any of these assays. Unless noted, the call rests on the fitted dose curve; in most records, active means well fitted curve in the direction sought with a large enough effect; inconclusive means small, poorly fitted or top-dose-only effect, or another doubt; inactive means no such curve, though single readings can be large; an effect the other way counts as inactive or inconclusive.

No.	Structure	HEK293 tox	GLP-1R agonist	GLP-1R inv ag
1	C=CCC[C@@H](Cc1ccc(F)cc1)C(=O)OC[C@H](Cc1c[nH]c2ccccc12)NC(=O)[C@H](CC=C)CC(=O)N(CCO)Cc1ccccc1	?	-1%	10µM*
2	C=CCC[C@H](Cc1ccc(F)cc1)C(=O)OC[C@H](Cc1c[nH]c2ccccc12)NC(=O)[C@@H](CC=C)CC(=O)N(CCO)Cc1ccccc1	18%	-6%	?
3	C=CC[C@H](CC(=O)N(CCO)Cc1ccccc1)C(=O)NC[C@@H](OC(=O)[C@@H](CC=C)Cc1ccc(F)cc1)c1ccccc1	-25%	-5%	3.2µM*
4	CCCC(NC(=S)NCC1CCCO1)C12CC3CC(CC(C3)C1)C2 (stereo not given)	?	13%	5.6µM*
5	S=C(NCC1CCCO1)NC1CCCCC1 (stereo not given)	-10%	3%	-1%
6	c1ccc(-c2ccc(-c3cnc4n3CCCCC4)cc2)cc1	?	-1%	5µM*
7	Cc1ccc(-c2cnc3n2CCCCC3)cc1	?	-3%	?
8	O=C(CN1CCC(n2nnc3cc(C(F)(F)F)ccc32)CC1)Nc1ccc2c(c1)CCC2	3%	1%	4.5µM*
9	CCOC(=O)N1CCc2c(sc(NCc3ccc(N(CC)CC)cc3)c2C(=O)Nc2cc(OC)ccc2OC)C1	-1%	.	-7%
10	CCOC(=O)N1CCc2c(sc(NCc3ccc(OCC)cc3)c2C(=O)Nc2ccc(OC)cc2OC)C1	6%	.	?
11	CC1CCN(c2nc3ccc(C(=O)NC(C)C)cc3s2)CC1	6%	.	5µM*
12	O=C1CS(=O)(=O)N(Cc2cccc(F)c2)c2ccc(Br)cc21	-6%	-3%	10µM*
13	CN(C(=O)c1ccc2c(c1)N(Cc1cccc(Cl)c1)C(=O)c1ccccc1S2(=O)=O)C1CCCCC1	1%	.	?
14	C=CCCN(C(CC(C)C)C(=O)OC)S(=O)(=O)c1ccccc1Br (stereo not given)	20%	-1%	?
15	C=CCCN(C(CC(C)C)C(=O)OC)S(=O)(=O)c1cc(Br)ccc1Br (stereo not given)	5%	-1%	11µM*

No.	miR-21 reporter	Pin1 inh	PTHR1 ag
1	.	1%	i
2	.	?	i
3	.	-2%	-22%
4	1%	6%	i
5	-5%	1%	-12%
6	-15%	-3%	-12%
7	-9%	-5%	i
8	2%	16%	-20%[57.5 µM]
9	5%	65%	40µM*
10	?	-3%	i
11	-22%	15%	-79%
12	.	-6%	-36%
13	15%	10%	-7%
14	7%	-5%	-58%
15	-1%	3%	-30%

Shown as a hit in PTHR1 ag, among the entries above:
nr	SMILES	GLP-1R agonist	GLP-1R inv ag	miR-21 reporter	Pin1 inh	PTHR1 ag
9	CCOC(=O)N1CCc2c(sc(NCc3ccc(N(CC)CC)cc3)c2C(=O)Nc2cc(OC)ccc2OC)C1	.	-7%	5%	65%	40µM*

Single records, as listed above. Values in the order: HEK293 tox, GLP-1R agonist, GLP-1R inv ag, miR-21 reporter, Pin1 inh, PTHR1 ag
CCCC(NC(=S)NCC1CCCO1)C12CC3CC(CC(C3)C1)C2 (stereo not given) across the screens: ?, 13%, 5.6µM*, 1%, 6%, i
C=CCC[C@H](Cc1ccc(F)cc1)C(=O)OC[C@H](Cc1c[nH]c2ccccc12)NC(=O)[C@@H](CC=C)CC(=O)N(CCO)Cc1ccccc1 across the screens: 18%, -6%, ?, ., ?, i

Continued:
No.	Structure	HEK293 tox	GLP-1R agonist	GLP-1R inv ag
16	COC(=O)c1ccccc1NC(=O)CSc1c2c(nc3ccc(Cl)cc13)CCCC2	-11%	.	11%
17	CN1CCC(N(C)S(=O)(=O)c2ccc(NC(=O)COc3ccc(F)cc3)cc2)CC1	14%	-1%	?
18	CN1CCC(N(C)S(=O)(=O)c2ccc(NC(=O)COc3ccc(F)cc3Cl)cc2)CC1	2%	3%	10µM*
19	Cc1ccc(C(=O)/C=C/Nc2ccccn2)cc1	10%	-15%	5.6µM*
20	COc1cc(Cl)c(C)cc1NC(=O)CSCc1nc(-c2ccc(OC)c(OC)c2)no1	-4%	.	-6%
21	Cc1onc(-c2c(Cl)cccc2Cl)c1C(=O)N1CCN(c2ccc(F)cc2)CC1	-15%	11%	13µM*
22	N/C(=N\OCc1ccc([N+](=O)[O-])cc1)c1ccccn1	-3%	-3%	1.3µM*
23	CC(C(=O)O/N=C(\N)c1ccccn1)c1ccc([N+](=O)[O-])cc1 (stereo not given)	-6%	12%	-12%
24	C/C=C(/C)C(=O)O[C@@H]1c2c(ccc3ccc(=O)oc23)O[C@@H]1C(C)(C)OC(=O)/C(C)=C\C	5%	-1%	13µM*
25	CC(=NNC(=S)N1CC2CCC(CC2)C1)c1cnccn1	-58%	-4%	?
26	CC(=NNC(=S)N1CCN(C2CCCCCC2)CC1)c1ccccn1	0.32µM*	6%	-70%
27	CC(=NNC(=S)N1CC2CCC(CC2)C1)c1ccccn1	6.3µM*	-5%	?
28	CCOC(=O)C1=C(C)N(CCCCCC(=O)O)C(=O)NC1c1ccc(Cl)cc1 (stereo not given)	6%	1%	3%
29	CCOC(=O)C1=C(C)N(CC)C(=S)NC1c1ccc(Cl)cc1 (stereo not given)	?	2%	10µM*
30	O=C(NCc1cccc(F)c1)c1ccccc1NC(=O)c1nsc2ccccc12	-17%	.	11%

No.	miR-21 reporter	Pin1 inh	PTHR1 ag
16	-7%	1%	-54%
17	.	2%	i
18	-13%	1%	i
19	.	2%	-39%
20	7%	-1%	-2%
21	6%	-1%	-10%
22	?	-4%	-28%
23	-28%	-1%	i
24	15%	11%	-29%
25	.	-7%	-11%
26	.	15%	11%
27	.	.	-58%
28	-9%	2%	i
29	7%	5%	-30%
30	6%	?	?

Values in list order from above.
Entries 26–29 in GLP-1R agonist, in turn: 6%, -5%, 1%, 2%
Entries 26–29 in HEK293 tox, in turn: 0.32µM*, 6.3µM*, 6%, ?
Entries 26–29 in PTHR1 ag, in turn: 11%, -58%, i, -30%

Additional records.
No.	Structure	HEK293 tox	GLP-1R agonist	GLP-1R inv ag
31	Cn1ncc(Br)c1C(=O)NC12CC3CC(CC(C3)C1)C2	-16%	6%	10µM*
32	CCOC(=O)c1ccc(-c2c(-c3ccccc3OC)sc3ccc(OC)cc23)cc1F	17%	-2%	11µM*
33	CCC(COC)NCc1cn(-c2ccc(OC)cc2)nc1-c1cccc(F)c1 (stereo not given)	?	4%	4.5µM*
34	COc1ccc(-n2cc(CNC(C)c3ccncn3)c(-c3cccc(F)c3)n2)cc1 (stereo not given)	3%	8%	?
35	Nc1ccc(S(=O)(=O)N2CCCN(S(=O)(=O)c3ccc4c(c3)OCCO4)CC2)cc1	.	.	.
36	CCCc1oc(C(=O)O)cc1CN1CCCC1	13%	-7%	15%
37	CCCc1oc(C(=O)O)cc1CN	3%	-1%	8%
38	CC(C)C1C(c2ccccc2)N(C)C(c2ccccc2)CC1(O)c1ccccc1 (stereo not given)	2%	-14%	0%
39	CC(C)C1C(c2ccccc2)NC(c2ccccc2)CC1(O)c1ccc(F)cc1 (stereo not given)	?	3%	10µM*
40	Cc1ccc(NC(=O)C(=O)NCC(c2cccnc2)N2CCN(Cc3ccccc3)CC2)cc1C (stereo not given)	3%	.	8%
41	O=C(c1cc2cc(Cl)ccc2[nH]1)N1CCN(Cc2ccc3c(c2)OCO3)CC1	-17%	-3%	11µM*

No.	miR-21 reporter	Pin1 inh	PTHR1 ag
31	-12%	2%	i
32	.	3%	1%
33	-6%	-7%	?
34	0%	0%	i
35	.	-1%	.
36	-3%	-6%	i
37	1%	-2%	18µM*
38	-3%	6%	i
39	?	-1%	i
40	-32%	2%	-15%
41	9%	17%	-12%

As entered above:
Under miR-21 reporter, compound 38 has -3%
Under Pin1 inh, compound 35 has -1%
Under miR-21 reporter, compound 34 has 0%

Screening data: PubChem, National Center for Advancing Translational Sciences (NCATS)
